This test addresses Vascular endothelial growth factor receptor 2 (Homo sapiens) (UniProt P35968). Description: Biochemical primary assay, inhibitors of H. sapiens VEGFR2, LANCE Ultra time-resolved FRET readout, NPC library (AID 1117353). To be noted: LANCE Ultra TR-FRET kinase assay; at 20 µM (top of the series).

Sequences of proteins named here, by UniProt entry; tags and fusion partners are left off.
UniProt P35968, whole entry, looked up: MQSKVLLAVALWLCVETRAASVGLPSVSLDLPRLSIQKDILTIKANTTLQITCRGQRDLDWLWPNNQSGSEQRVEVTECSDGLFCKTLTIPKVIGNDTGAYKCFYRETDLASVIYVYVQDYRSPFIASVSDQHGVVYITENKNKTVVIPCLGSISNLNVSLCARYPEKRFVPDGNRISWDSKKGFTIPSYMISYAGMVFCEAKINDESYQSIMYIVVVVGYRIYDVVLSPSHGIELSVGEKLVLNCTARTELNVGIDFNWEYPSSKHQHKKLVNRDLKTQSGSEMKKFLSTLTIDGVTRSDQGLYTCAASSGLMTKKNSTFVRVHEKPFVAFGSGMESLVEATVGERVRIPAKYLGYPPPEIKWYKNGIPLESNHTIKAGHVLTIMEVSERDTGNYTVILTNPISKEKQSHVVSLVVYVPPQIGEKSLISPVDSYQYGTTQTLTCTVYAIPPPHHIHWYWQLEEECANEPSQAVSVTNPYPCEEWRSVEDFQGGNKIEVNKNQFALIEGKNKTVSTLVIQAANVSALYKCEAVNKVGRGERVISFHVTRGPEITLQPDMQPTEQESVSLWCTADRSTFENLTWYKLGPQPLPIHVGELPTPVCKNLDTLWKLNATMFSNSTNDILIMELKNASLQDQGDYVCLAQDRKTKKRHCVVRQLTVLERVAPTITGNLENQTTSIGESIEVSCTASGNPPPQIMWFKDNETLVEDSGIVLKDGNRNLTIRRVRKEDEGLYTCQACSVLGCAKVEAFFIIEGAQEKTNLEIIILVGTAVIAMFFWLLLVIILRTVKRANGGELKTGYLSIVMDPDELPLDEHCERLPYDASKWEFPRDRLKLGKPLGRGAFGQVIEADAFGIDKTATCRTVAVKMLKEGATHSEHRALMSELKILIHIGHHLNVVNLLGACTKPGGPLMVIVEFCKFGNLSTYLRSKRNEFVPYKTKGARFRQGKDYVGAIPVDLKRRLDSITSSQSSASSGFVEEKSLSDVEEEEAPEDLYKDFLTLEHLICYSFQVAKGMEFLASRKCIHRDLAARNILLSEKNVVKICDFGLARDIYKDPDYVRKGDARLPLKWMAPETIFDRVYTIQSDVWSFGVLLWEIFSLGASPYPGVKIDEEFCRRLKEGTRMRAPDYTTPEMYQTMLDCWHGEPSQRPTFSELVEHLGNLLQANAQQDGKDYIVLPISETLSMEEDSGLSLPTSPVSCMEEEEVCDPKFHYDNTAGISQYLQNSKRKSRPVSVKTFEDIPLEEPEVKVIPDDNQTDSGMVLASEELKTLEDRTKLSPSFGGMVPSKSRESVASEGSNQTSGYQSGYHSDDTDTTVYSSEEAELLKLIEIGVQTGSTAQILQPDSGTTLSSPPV

Only a part is listed here, and it is no random draw. The source made the active and inactive calls. Cut-off read from the data, not from the text of the source: active = inhibition above about 50%; inactive = the rest.

With `CN(CCCl)CCCl`, the inhibition was inactive: 18.2%.

Usually inhibition stands for the drop in the measured response relative to a control, in per cent.

The values above are taken from PubChem BioAssay AID1117353 (Cheminformatics & Chemogenomics Research Group (CCRG), …, 2015).
